Test results taken from US20160137639A1, “TRIAZOLE-ISOXAZOLE COMPOUND AND MEDICAL USE THEREOF” (JAPAN TOBACCO INC., priority 2012, published 2016).

By UniProt entry, the sequences of proteins in these tests, tags left out. Residues count along the entry.
UniProt P51450, 251-516 limits assumed: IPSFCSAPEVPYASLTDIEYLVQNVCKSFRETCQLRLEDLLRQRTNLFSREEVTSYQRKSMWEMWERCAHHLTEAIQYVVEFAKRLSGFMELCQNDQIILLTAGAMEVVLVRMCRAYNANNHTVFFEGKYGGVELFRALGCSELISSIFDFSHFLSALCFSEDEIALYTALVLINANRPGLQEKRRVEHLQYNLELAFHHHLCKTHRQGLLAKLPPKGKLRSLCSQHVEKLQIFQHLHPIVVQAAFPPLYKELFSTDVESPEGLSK
UniProt P51449, 253-518 limits assumed: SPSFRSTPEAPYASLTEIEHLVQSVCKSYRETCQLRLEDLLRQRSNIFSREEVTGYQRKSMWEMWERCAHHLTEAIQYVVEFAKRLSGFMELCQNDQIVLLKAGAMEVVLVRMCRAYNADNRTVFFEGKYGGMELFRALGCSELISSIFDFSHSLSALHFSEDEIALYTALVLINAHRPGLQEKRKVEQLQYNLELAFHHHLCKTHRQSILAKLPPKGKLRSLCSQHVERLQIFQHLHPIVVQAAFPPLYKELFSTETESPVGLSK

Assays:
[1] = biological target: mouse RORγ (Mus musculus, UniProt P51450); experiment: Luciferase reporter gene assay of inhibitory effect against RORγ transcriptional activity (GAL4-mRORγ plasmid in CHO cells); format: cell-based
[2] = biological target: human RORγ (Homo sapiens, UniProt P51449); experiment: Luciferase reporter gene assay of inhibitory effect against RORγ transcriptional activity (GAL4-hRORγ plasmid in CHO cells)
[3] = read-out: LUC EC50 mRORg, tested form: HCl
[4] = read-out: LUC EC50 hRORg, tested form: HCl

Row | Structure (SMILES) | EC50 ([1]; read-out: LUC EC50 (μM) mRORg) [µM] | EC50 ([2]; read-out: LUC EC50 (μM) hRORg) [µM] | other results
1 | Cc1ccc(NC(=O)C[C@H](CC(C)(C)O)c2nnc(CCCC(C)C)n2C2CC2)c(C)c1 | < 3 | < 3 | EC50 ([1]; read-out: LUC EC50 (μM) mRORg, tested form: hydrochloride): < 3 µM; EC50 ([2]; read-out: LUC EC50 (μM) hRORg, tested form: hydrochloride): < 3 µM
2 | CC(C)Cc1cc(-c2nnc([C@H](CC(=O)Nc3ccc4c(c3)OC(F)(F)O4)OC(C)C)n2C2CC2)no1 |  |  | EC50 [1, 3]: < 3 µM; EC50 [2, 4]: < 3 µM
3 | CC(C)(C)C(F)(F)c1cc(-c2onc([C@@H](CC(=O)O)CC(=O)Nc3ccc(Cl)cc3F)c2C2CC2)no1 |  |  | EC50 ([1]; read-out: LUC EC50 (μM) mRORg, tested form: Na salt): < 3 µM; EC50 ([2]; read-out: LUC EC50 (μM) hRORg, tested form: Na salt): < 3 µM
4 | CCn1c(CCC(=O)NCc2cccc3ccccc23)nnc1CCC1CCCCC1 | < 3 | < 3 | 
5 | Cc1ccc(NC(=O)C[C@H](C[C@H](C)O)c2nnc(CCCC(C)C)n2C2CC2)c(C)c1 | < 3 | < 3 | 
6 | Cc1ccc(NC(=O)C[C@H](CCO)c2nnc([C@H]3C[C@@H](CC(C)C)C3)n2C2CC2)c(Cl)c1 |  |  | EC50 ([1]; read-out: LUC EC50 mRORg): < 3 µM; EC50 ([2]; read-out: LUC EC50 hRORg): < 3 µM
7 | Cc1ccc(NC(=O)C[C@@H](C[C@@H](C)O)c2nnc(CCCC(C)C)n2C2CC2)c(C)c1 | > 3 | > 3 | 
8 | Cc1ccc(NC(=O)C2CCC(=O)N(C)C2c2nnc(CCCC(C)(C)C)n2C2CC2)c(C)c1 (stereo not drawn) | < 3 | < 3 | 
9 | Cc1ccc(NC(=O)C[C@@H](C[C@H](C)O)c2nnc(CCCC(C)C)n2C2CC2)c(C)c1 | < 3 | > 3 | 
10 | Cc1ccc(NC(=O)C[C@@H](CC(C)(C)O)c2nnc(CCCC(C)C)n2C2CC2)c(C)c1 | > 3 | > 3 | 
11 | Cc1c(Cl)cccc1NC(=O)CCc1nnc(CC(=O)N(C)C)n1C1CC1 | > 3 | > 3 | 
12 | C=CCC(CC(=O)Nc1ccc(C)cc1C)c1nnc(CCC2CCCCC2)n1C1CC1 (racemic) | < 3 | < 3 | 
13 | CCn1c(CCC(=O)NCc2cccc(C)c2)nnc1CCC1CCCCC1 [Example F-42] | > 3 | > 3 | 
14 | Cc1ccc(NC(=O)C[C@@H](C[C@H](C)OCc2ccccc2)c2nnc(CCCC(C)C)n2C2CC2)c(C)c1 | > 3 | > 3 | 
15 | Cc1ccc(NC(=O)C[C@H](CNC(=O)C(C)(C)O)c2nnc([C@H]3C[C@@H](CC(C)C)C3)n2C2CC2)c(C)c1 | < 3 | < 3 | 
16 | Cc1ccc(NC(=O)C[C@H](OCC(C)C)c2nnc(-c3cc(CC(C)C)on3)n2C2CC2)c(C)c1 |  |  | EC50 ([1]; read-out: LUC EC50 mRORg): < 3 µM; EC50 ([2]; read-out: LUC EC50 hRORg): < 3 µM
17 | Cc1ccc(NC(=O)[C@H]2CN(C(=O)C(C)(C)O)C[C@@H]2c2nnc([C@H]3C[C@@H](CC(C)C)C3)n2C2CC2)c(C)c1 |  |  | EC50 [1, 3]: < 3 µM; EC50 [2, 4]: < 3 µM
18 | Cc1ccc(NC(=O)C[C@H](C[C@H](C)OCc2ccccc2)c2nnc(CCCC(C)C)n2C2CC2)c(C)c1 | < 3 | < 3 | 
19 | Cc1ccc(NC(=O)CC(CC(C)(C)O)c2nnc(CCCC(C)C)n2C2CC2)c(C)c1 (stereo not drawn) |  |  | EC50 ([1]; read-out: LUC EC50 (μM) mRORg, tested form: racemic form): < 3 µM; EC50 ([2]; read-out: LUC EC50 (μM) hRORg, tested form: racemic form): < 3 µM
20 | Cc1ccc(NC(=O)C[C@H](C[C@@H](C)O)c2nnc(CCCC(C)C)n2C2CC2)c(C)c1 | < 3 | < 3 | 

Read-outs that look alike come from different tables or passages of the source.
